Data on 1 compound can be found in US11524968B2, “Heterocyclic compound as a protein kinase inhibitor” (HK inno.N Corporation, priority 2017, dated 2022).

Protein sequences, listed by entry. Tags and fused reporters are not part of them.
UniProt P23458, whole entry: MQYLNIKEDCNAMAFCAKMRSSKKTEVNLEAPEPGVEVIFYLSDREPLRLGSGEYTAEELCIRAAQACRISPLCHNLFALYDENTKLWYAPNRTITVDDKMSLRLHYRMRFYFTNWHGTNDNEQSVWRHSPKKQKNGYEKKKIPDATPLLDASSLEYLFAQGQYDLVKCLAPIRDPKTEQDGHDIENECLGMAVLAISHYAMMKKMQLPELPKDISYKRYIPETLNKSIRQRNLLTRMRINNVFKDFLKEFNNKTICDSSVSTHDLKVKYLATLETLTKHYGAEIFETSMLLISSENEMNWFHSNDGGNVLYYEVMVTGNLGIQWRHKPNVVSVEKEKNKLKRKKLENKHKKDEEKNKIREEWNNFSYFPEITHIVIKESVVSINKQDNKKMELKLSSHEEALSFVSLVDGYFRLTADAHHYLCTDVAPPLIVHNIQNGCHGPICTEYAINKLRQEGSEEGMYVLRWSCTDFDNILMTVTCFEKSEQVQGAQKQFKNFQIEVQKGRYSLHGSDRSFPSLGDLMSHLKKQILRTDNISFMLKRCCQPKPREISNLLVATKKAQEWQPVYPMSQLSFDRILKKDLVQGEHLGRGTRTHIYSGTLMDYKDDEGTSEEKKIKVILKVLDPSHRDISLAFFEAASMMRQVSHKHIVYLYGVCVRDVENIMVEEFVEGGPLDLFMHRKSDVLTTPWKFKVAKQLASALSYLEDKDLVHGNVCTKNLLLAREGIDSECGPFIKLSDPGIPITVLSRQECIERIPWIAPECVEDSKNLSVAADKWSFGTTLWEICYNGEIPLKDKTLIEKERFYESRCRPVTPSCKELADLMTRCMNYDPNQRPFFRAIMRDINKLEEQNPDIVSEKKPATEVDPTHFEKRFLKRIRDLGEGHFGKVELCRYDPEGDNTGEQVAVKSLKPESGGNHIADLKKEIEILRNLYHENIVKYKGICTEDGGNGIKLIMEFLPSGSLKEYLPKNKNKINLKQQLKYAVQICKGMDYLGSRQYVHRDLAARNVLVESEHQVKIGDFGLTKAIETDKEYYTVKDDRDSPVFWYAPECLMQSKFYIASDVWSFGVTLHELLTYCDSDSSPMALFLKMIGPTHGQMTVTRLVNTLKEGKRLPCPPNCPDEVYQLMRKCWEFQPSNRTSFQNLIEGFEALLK

pIC50: −log10 of the molar value.

In general, pIC50 refers to the IC50 on a negative log10 scale, so that one unit is a factor of ten. Low values mean a large IC50, high ones a small IC50.

In this experiment the target is JAK1 (Homo sapiens (Human), UniProt P23458). Kind of experiment: Analysis of JAK1 activity inhibition ability (ADP-Glo Kinase Assay). Particulars: JAK1 enzyme, ADP-Glo luminescence, ATP 250 uM, IRS-itide substrate, 30° C. 40 minutes. The protocol:
Test Example 1: Analysis of JAK1 Activity Inhibition Ability of Compound of Formula 1 (ADP-Glo™ Kinase Assay)
A JAK inhibition ability of a compound according to the present invention was identified as follows.
A control material and a test material were prepared for each concentration, in such a way that they were diluted by means of DMSO. At the same time, ATP (250 uM) and JAK substrate (JAK1, IRS-itide 40 ng/mL) were prepared, in such a way that they were diluted by means of kinase buffer (40 mM Tris-HCl pH 7.5, 20 mM MgCl2, 0.5 mg/mL BSA, 50 uM DTT).
A test drug for each concentration, substrate, ATP and JAK enzyme were mixed in an eppendorf tube, and reacted in a 30° C. incubator for 40 minutes.
ADP-Glo™ reagent contained in ADP-Glo™ Kinase Enzyme System (Promega, USA, V9571) was added into each eppendorf tube, and reacted in a 30° C. incubator for 40 minutes. A kinase detection reagent contained in ADP-Go™ Kinase Enzyme System was inserted into the eppendorf tube, then an integration time was set to 1 second by using Wallac Victor 2™, then luminescence was measured, and then JAKs phosphorylation inhibition ability of the test material was analyzed. The concentration of the compound, which causes 50% of the JAK enzyme activity inhibition in comparison With the control group, was determined as IC50 (nM) of an inhibitor, wherein the results thereof are shown in a following table 1.
For orientation: ADP-Glo turns the ADP formed in a reaction into a luminescent signal.

In turn, `CS(=O)(=O)N1C2CCC1CN(c1cc(NC(=O)C3CC3)nc3[nH]ccc13)C2` showed a pIC50 of 6.70 to 7.70.
